Literature values in publication PMC7037052, “Predicting the Blood-Brain Barrier Permeability of New Drug-Like Compounds via HPLC with Various Stationary Phases” (Molecules, 2020).

Parameters: method as in PMID 16331406
Details: rats; BB = Cbrain/Cplasma; training set; cited from earlier work

Compound: Cc1csc(N=C(N)N)n1 [Compound 7120-01-6]
- log BBexp.: −0.04

Compound: O=C1CCCN1CCCCN1CCN(c2cc(C(F)(F)F)ccn2)CC1 [Compound 142494-12-0]
- log BBexp.: 0.16
